Laboratory results taken from US20130071854A1, “METHODS FOR THE IDENTIFICATION AND CHARACTERIZATION OF HDAC INTERACTING COMPOUNDS” (priority 2009, published 2013).

Target: T1, HDAC10 (Homo sapiens, UniProt Q969S8)
T1 sequence (Q969S8 1-669): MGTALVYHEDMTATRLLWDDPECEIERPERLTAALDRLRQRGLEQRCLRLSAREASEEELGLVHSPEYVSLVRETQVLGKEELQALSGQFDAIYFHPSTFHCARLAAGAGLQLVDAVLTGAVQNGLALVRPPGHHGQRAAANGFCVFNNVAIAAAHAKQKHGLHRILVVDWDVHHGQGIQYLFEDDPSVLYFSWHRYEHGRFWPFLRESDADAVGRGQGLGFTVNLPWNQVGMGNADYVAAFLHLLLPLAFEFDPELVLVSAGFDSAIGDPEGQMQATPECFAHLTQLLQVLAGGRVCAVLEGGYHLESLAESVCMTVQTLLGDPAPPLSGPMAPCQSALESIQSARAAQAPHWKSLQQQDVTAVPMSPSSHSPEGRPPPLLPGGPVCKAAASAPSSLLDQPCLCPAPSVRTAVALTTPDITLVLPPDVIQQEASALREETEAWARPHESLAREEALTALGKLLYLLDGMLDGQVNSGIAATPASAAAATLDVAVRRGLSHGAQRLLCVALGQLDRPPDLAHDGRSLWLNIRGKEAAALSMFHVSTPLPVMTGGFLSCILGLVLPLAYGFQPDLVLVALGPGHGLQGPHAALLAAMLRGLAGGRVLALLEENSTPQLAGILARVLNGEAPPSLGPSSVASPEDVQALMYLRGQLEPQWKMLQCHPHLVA
Test: Competition binding assay in cell lysate, affinity matrix, MS
Design: used to probe endogenous HDACs in K562 whole cell extracts; endogenous in cells; host or cells: K-562
Conditions: Example 3 or 4, Molt4 and K-562 cell lysates

Compound: CC(/C=C/C(=O)NO)=C\[C@@H](C)C(=O)c1ccc(N(C)C)cc1 [Trichostatin A]
- inhibition of HDAC10 (in words): no significant inhibition
